# Properties, as collected for the OPERA models

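The OPERA project collected these measurements from public sources as training and test data for property models. One number stands for a compound and property, with no spread given. Method and conditions are not stated for these values. A value may pool stereoisomers or salt forms, and the file does not say which form was measured. Unmarked limits or estimates from the upstream databases cannot be ruled out.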

The melting point is given in degrees Celsius. The boiling point refers to atmospheric pressure (760 mmHg), by the definition of the set. The octanol-water partition coefficient is given as log10; larger values mean a more lipophilic compound. Solubility in water is on a log10 molar scale (set defined at 25 °C). Vapor pressures (log10 mmHg) refer to near room temperature, 15 to 30 °C; higher is more volatile. Henry's law constant (air-water partitioning) is log10 of atm·m3/mol, nominally at 25 °C. The unbound fraction in human plasma runs from 0 (all bound) to 1 (all free).

* COCCCCC(=O)c1ccc(C(F)(F)F)cc1 [Fluvoxketone]: logP (octanol/water) 3.3; water solubility -3.544 (log10 mol/L); log vapor pressure -5.98 (log10 mmHg)
* CCC(=O)O[C@]1(C(=O)CCl)[C@@H](C)C[C@H]2[C@@H]3C[C@H](F)C4=CC(=O)C=C[C@]4(C)[C@@]3(F)[C@@H](O)C[C@@]21C [Halobetasol propionate]: logP (octanol/water) 2.9; water solubility -4.807 (log10 mol/L)
* c1ccc(-c2ccc(-c3nc(-c4ccc(-c5ccccc5)cc4)nc(-c4ccc(-c5ccccc5)cc4)n3)cc2)cc1 [Tris-biphenyl triazine]: MP 281.3 °C; logP (octanol/water) 5.6; water solubility -10.25 (log10 mol/L)
* CCCC(C)C(=O)Nc1ccc(C)c(Cl)c1 (centres undefined) [Pentanochlor]: log vapor pressure -5.648 (log10 mmHg); log Henry constant -7.804 (log10 atm·m3/mol)
* CCc1cc(CC)c2sc3ccccc3c(=O)c2c1 [9H-Thioxanthen-9-one, 2,4-diethyl-]: logP (octanol/water) 6.267; water solubility -5.519 (log10 mol/L); log vapor pressure -6.778 (log10 mmHg)
* CCCCCCCC/C=C\CCCCCCCC(=O)O.CCCCCCCC/C=C\CCCCCCCCN: water solubility -5.962 (log10 mol/L); log vapor pressure -4.917 (log10 mmHg)
* CC(CC(N)=O)n1nc2ccccc2n1 (centres undefined) [3-(2H-Benzotriazol-2-yl)butanamide]: MP 152 °C; logP (octanol/water) 1
* CC(C)C(=O)OCc1ccccc1 [Benzyl 2-methylpropanoate]: MP -35.43 °C; logP (octanol/water) 2.99; water solubility -2.256 (log10 mol/L)
* Cc1cc2nc3c(=O)[nH]c(=O)nc-3n(C[C@H](O)[C@H](O)[C@H](O)COP(=O)(O)O)c2cc1C [Riboflavin phosphate]: MP 290 °C; water solubility -0.696 (log10 mol/L)
* O=C1CCC=CCCC=CCCC1 [4,8-Cyclododecadien-1-one]: MP -31.5 °C; boiling point 252.5 °C; water solubility -2.81 (log10 mol/L); log vapor pressure -1.912 (log10 mmHg)
* NC1CCCC1 [Cyclopentanamine]: logP (octanol/water) 0.83; log vapor pressure 1.287 (log10 mmHg)
* CO[C@@]1(NC(=O)CSCC#N)C(=O)N2C(C(=O)O)=C(CSc3nnnn3C)CS[C@@H]21 [Cefmetazole]: water solubility -2.339 (log10 mol/L); fraction unbound 0.1909
* CCCCCC1CC(=O)C=C(C)C1C(=O)OCC (centres undefined): water solubility -3.187 (log10 mol/L); log vapor pressure -4.426 (log10 mmHg)
* C#CC1(C)CCCC(C)(C)O1 (centres undefined) [2H-Pyran, 2-ethynyltetrahydro-2,6,6-trimethyl-]: MP 50 °C; log vapor pressure 0.44 (log10 mmHg)
* CC(=O)CCCCCl [6-Chlorohexan-2-one]: MP -30.9 °C; logP (octanol/water) 1.43; log vapor pressure 0.008 (log10 mmHg)
* CNc1ccc(Nc2cccc(C)c2)c2c1C(=O)c1ccccc1C2=O: MP 148.2 °C; water solubility -7.233 (log10 mol/L); log vapor pressure -4.824 (log10 mmHg)
* C=CC1CCCCC1 [Vinylcyclohexane]: logP (octanol/water) 5.01; water solubility -3.866 (log10 mol/L); log vapor pressure 1.215 (log10 mmHg)
* CCC(CC)CC1(C(=O)O)CCCCC1 [1-(2-Ethyl-butyl)-cyclohexanecarboxylic acid]: MP 21 °C; boiling point 306 °C; logP (octanol/water) 4.35; water solubility -4.282 (log10 mol/L); log vapor pressure -3.514 (log10 mmHg)
* Cc1ccc(Nc2cccc3c2C(=O)c2c(Nc4ccc(C)cc4)cccc2C3=O)cc1: MP 216.9 °C; logP (octanol/water) 8.3; water solubility -8.145 (log10 mol/L)
* CCCCOC(=O)[C@@H]1CCCC[C@@H]1C(=O)OCc1ccccc1 (relative stereo): MP -10.04 °C; logP (octanol/water) 4.56
* CCCCCCCCCCCC(=O)OCC(C)(C)C=Nc1ccc(N=CC(C)(C)COC(=O)CCCCCCCCCCC)cc1: MP 13 °C; log vapor pressure -4.458 (log10 mmHg)
* CCCCCCCC(=O)OCC(CCC)CCCCC (centres undefined) [2-Propylheptyl octanoate]: MP -38.9 °C; boiling point 319 °C; log vapor pressure -2.9 (log10 mmHg)

Excerpt, the opening 2 entries:

* COCCCCC(=O)c1ccc(C(F)(F)F)cc1 [Fluvoxketone]: logP (octanol/water) 3.3; water solubility -3.544 (log10 mol/L); log vapor pressure -5.98 (log10 mmHg)
* CCC(=O)O[C@]1(C(=O)CCl)[C@@H](C)C[C@H]2[C@@H]3C[C@H](F)C4=CC(=O)C=C[C@]4(C)[C@@]3(F)[C@@H](O)C[C@@]21C [Halobetasol propionate]: logP (octanol/water) 2.9; water solubility -4.807 (log10 mol/L)

Data: OPERA 2.9 data sets, kmansouri/OPERA on GitHub.